# The list shows a part of the results, in another mix than the full data. Active and inactive are the calls of the source.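 Rule for the calls: active = GFP response relative to DMSO above a set limit, near the screen mean plus 3 SD (cut at about 150% in these data); inconclusive = Fewer than 70 cells measured for a yeast strain; inactive = the rest.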
# Test: modulators of CIT2-GFP expression in yeast, primary screen, S. cerevisiae, GFP fusion, multiplex flow cytometry, MLPCN library (AID 2029);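 note: ratio of well median GFP fluorescence to mean of DMSO wells on the plate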
# Details: S. cerevisiae CIT2-GFP strain, 3 h, at 10 µM, stronger effect = higher value, 100 means same as DMSO wells
row,Structure (SMILES),GFP response vs DMSO
1,O=[N+]([O-])c1ccc(OP2(=O)COCCO2)cc1 (stereo unspecified),inactive: 95.5%
2,CP(=O)(Nc1ccc(SC(F)(F)F)cc1)Oc1ccc(F)cc1 (stereo unspecified),inactive: 103%
3,CCOP(C)(=S)SCC(=O)NC(C)(CC)C(=O)O (stereo unspecified),inactive: 103%
4,CP(=O)(Nc1ccc2c(c1)OCCO2)Oc1ccccc1 (stereo unspecified),inactive: 96.9%
5,Cc1ccccc1NP(C)(=O)Nc1ccccc1C,inactive: 89.5%
6,CCN(CC)CC(O)COC(=O)C(O)(c1ccccc1)C1CCCCC1 (stereo unspecified),inactive: 102%
7,COc1ccc(OP(C)(=O)Nc2ccc(Br)cc2)cc1 (stereo unspecified),inactive: 98.6%
8,CP(=O)(Oc1ccccc1)N1CCOC1=O (stereo unspecified),inactive: 104%
9,CCc1ccc(OP(C)(=O)Nc2cccnc2)cc1 (stereo unspecified),inactive: 105%
10,COc1ccccc1OP(C)(=O)Nc1c(C)n(C)n(-c2ccccc2)c1=O (stereo unspecified),inactive: 101%
11,O=C(OCCCN1CCCC1)C(O)(c1ccccc1)C1CCCCC1 (stereo unspecified),inactive: 104%
12,CP(=O)(Nc1ccc(Cl)cc1)Oc1ccc(F)cc1 (stereo unspecified),inactive: 64.7%
13,CC(C)(C)c1ccc(OP(C)(=O)O)cc1,inactive: 99.7%
14,COc1ccccc1OP(C)(=O)Nc1ccccc1Br (stereo unspecified),inactive: 97.6%
15,CN(C)C(=O)c1c([N+](=O)[O-])cc([N+](=O)[O-])cc1[N+](=O)[O-],inactive: 89.3%
16,Nc1ccc2c(ccc3cccnc32)n1.O=[N+]([O-])c1cc([N+](=O)[O-])c(O)c([N+](=O)[O-])c1,inactive: 103%

row,Structure (SMILES),GFP response vs DMSO
1,CP(=O)(OC12CC3CC(CC(C3)C1)C2)OC12CC3CC(CC(C3)C1)C2,inactive: 110%
2,CCOC(=O)c1ccc(NP(C)(=O)Oc2ccc(Cl)cc2)cc1 (stereo unspecified),inactive: 98%
3,Cc1cc(C)cc(OP(C)(=O)Nc2cccc(C(F)(F)F)c2)c1 (stereo unspecified),inactive: 96.3%
4,COc1ccc(OP(C)(=O)Nc2ccccc2Br)cc1 (stereo unspecified),inactive: 86%
5,COc1ccccc1OP(C)(=O)Nc1ccc(C)c(C)c1 (stereo unspecified),inactive: 90.9%
6,Cc1nc2ccc3ccccc3c2o1.O=[N+]([O-])c1cc([N+](=O)[O-])c(O)c([N+](=O)[O-])c1,inactive: 103%
7,CP(=O)(OCCOc1ccccc1)OCCOc1ccccc1,inactive: 99.8%
8,CP(=O)(Nc1ccc(Cl)cc1Cl)Oc1ccccc1 (stereo unspecified),inactive: 85.4%
9,COc1ccccc1OP(C)(=O)Nc1ccc(Br)cc1 (stereo unspecified),inactive: 100%
10,CN(C)CCOC(=O)C(O)(c1ccccc1)C1CCCC1 (stereo unspecified),inactive: 101%
11,COc1ccc(OP(C)(=O)Nc2ccccn2)cc1 (stereo unspecified),inactive: 101%
12,O=[N+]([O-])c1cc([N+](=O)[O-])c(Nc2ccccn2)c([N+](=O)[O-])c1,inactive: 77.9%
13,Cc1c(NP(C)(=O)Oc2ccc(C(C)C)cc2)c(=O)n(-c2ccccc2)n1C (stereo unspecified),inactive: 102%
14,CCc1ccc(OP(C)(=O)O)cc1,inactive: 109%
15,CP(=O)(Nc1ccccn1)Oc1ccccc1 (stereo unspecified),inactive: 99.5%
